# Shown are actives, neighbours in structure and some others; about 4.2% of the full set was active somewhere.
# UUG fidelity: modulators of yeast start codon fidelity, primary screen, whole organism, S. cerevisiae, single point, plate reader. S. cerevisiae UUG-firefly luciferase reporter, luminescence/redox ratio. activity score, % at 18.7 µM. hit rate 0.13% among 350,000;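 active = replicate mean at a twofold rise or more, about +100% in these data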;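 also: firefly luciferase made from a UUG start codon reports start codon fidelity; reporter light over untreated wells divided by growth signal over untreated wells; some hits fall short of that in this replicate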
# HDAC3 inh: inhibitors of human histone deacetylase 3; O15379; recombinant HDAC3, fluorogenic peptide/trypsin coupled, fluorescence; inhibition, % at 8.3 µM; 320,000 compounds, 0.15% hits; AID 2718; in the data active = inhibition above about 26%, passing the limit was not always enough; inconclusive = no clear call, values can overlap the other calls
# NALP1 yeast inh: inhibitors of NALP1 inflammasome in yeast; 280,000 compounds, 0.61% hits; inhibition, % at 10 µM; S. cerevisiae NALP1/ASC/caspase-1 growth, X-gal OD620, 72 h; AID 2071; in the data active = inhibition mostly above about 24%, no sharp cut-off; inactive = mostly below about 32%
# MC4R barr agon: human MC4R agonism via beta-arrestin; P32245; U2OS MC4R beta-arrestin complementation, luminescence; percent of melanotan II response, DMSO zero; activation, % at 8.9 µM; 360,000 compounds, 0.98% hits; AID 540308;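 active = activation above a per-plate cutoff, the mean activation of sample wells on that plate plus 3 SD, cut at about 8% in these data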
# ALR H2O2 inh: inhibitors of human ALR sulfhydryl oxidase, primary screen, biochemical, H2O2 detection, HRP-luminol luminescence, single point | FAD-linked sulfhydryl oxidase ALR (Homo sapiens), P55789 | purified ALR, DTT oxidation | inhibition, % (concentration not given with the values) | actives 3.8% (n = 290,000) | AID 485317, 2010;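 active = mean and each replicate at 75% or more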;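 also: stock transfer was 7.5 nL into about 7.5 µL; 0% = neutral wells and 100% = wells with inactivated enzyme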
# MC4R antagonist: human MC4R antagonism in cAMP assay. MC4R-expressing cells, MTII-stimulated cAMP, LANCE TR-FRET. inhibition, % at 6.5 µM. 360,000 compounds, 0.48% hits. AID 540295;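 active = inhibition above its plate's cutoff, the mean of tested wells on that plate plus 3 SD, cut at about 29% in these data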;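 note: 0% = Melanotan II alone and 100% = Melanotan II plus saturating MCL0020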
#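 system = U2OS cells with stable human MC4R expression | also added = Melanotan II challenge after compound preincubation | dosing = one concentration, 6.5 µM nominal | incubation = compound 30 min, challenge 1 h, detection 1 h | measured by = TR-FRET with Eu-cAMP and labeled anti-cAMP, 671 nm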
# * marks the source's active call; other numbers are inactive results; ? = inconclusive; . = no result.
nr | molecule | ALR H2O2 inh | UUG fidelity | NALP1 yeast inh | MC4R barr agon | HDAC3 inh | MC4R antagonist
1 | Cc1ccc(N2CCN(C(=O)N3CCCC3)CC2)cc1Cl | 98.5* | -9.1 | 14.8 | 0.8 | 1.9 | -5.4
2 | COc1cc(NS(C)(=O)=O)ccc1Nc1c2ccccc2nc2ccccc12 | 98.6* | -7.9 | . | -2.5 | -0.6 | -9.6
3 | Cc1nn(Cc2ccc(Cl)cc2Cl)c(C)c1NC(=O)CCl | 90.3* | -12.7 | -50.9 | -1.9 | -2.4 | 9.4
4 | COc1cc(/C=C2\SC(=O)NC2=O)ccc1Oc1ccc([N+](=O)[O-])cc1[N+](=O)[O-] | 98.0* | . | 3.4 | -1.2 | 2.8 | 11.2
5 | Cc1cc(NCc2ccccn2)nc2ccccc12 | 84.4* | -11.1 | 15.6 | 0.5 | -5.4 | -3.2
6 | C[C@@H]1CN([C@@H](C)CO)S(=O)(=O)c2ccc(C3=CCCC3)cc2O[C@@H]1CN(C)C(=O)c1ccccc1 | . | 17.9 | . | . | . | .
7 | CC(C)c1cn(CC[C@@H]2CC[C@H](NS(=O)(=O)c3ccccc3)[C@@H](CO)O2)nn1 | . | -20.1 | . | . | . | .
8 | COc1cccc(/C=N/n2c(-c3n[nH]c4c3CCC4)n[nH]c2=S)c1O | 97.0* | . | -3.9 | 0.8 | 1.6 | 1.5
9 | Cc1cc(-c2n[nH]c(=S)n2/N=C/c2ccc(Br)s2)n[nH]1 | 96.7* | -3.0 | 18.1 | -2.0 | ? | 10.3
10 | COc1ccccc1/C=C/C=N/n1c(-c2n[nH]c3c2CCC3)n[nH]c1=S | 4.6 | -10.7 | -13.8 | -3.2 | . | 15.5
11 | Cc1cc(-c2n[nH]c(=S)n2/N=C/c2ccccc2[N+](=O)[O-])n[nH]1 | 94.9* | . | 17.0 | -2.2 | 9.7 | 0.5
12 | Cc1cc(-c2n[nH]c(=S)n2/N=C/c2ccc(C)s2)n[nH]1 | 18.7 | . | 25.4 | -1.1 | 4.3 | -0.8
13 | COc1cccc(/C=N/n2c(-c3cc(C)[nH]n3)n[nH]c2=S)c1O | 97.7* | . | -16.5 | 2.1 | 0.0 | -0.2
14 | Cc1cc(-c2n[nH]c(=S)n2/N=C/c2c[nH]c3ccccc23)n[nH]1 | 51.9 | . | 10.6 | -4.0 | . | 1.9
15 | C[C@H](NC(=O)C[C@H]1CC[C@H](NC(=O)CN2CCOCC2)[C@@H](CO)O1)c1ccccc1 | . | -5.1 | . | . | . | .
16 | S=c1[nH]nc(-c2n[nH]c3c2CCC3)n1/N=C/C=C/c1ccco1 | 97.5* | -10.0 | -7.3 | -2.5 | 0.0 | 4.5

# Results in sequence from above:
# Entries 7–16 in MC4R barr agon read ., 0.8, -2.0, -3.2, -2.2, -1.1, 2.1, -4.0, ., -2.5
# Entries 7–16 in NALP1 yeast inh read ., -3.9, 18.1, -13.8, 17.0, 25.4, -16.5, 10.6, ., -7.3

# A second format for part of the listing above.
No.	ALR H2O2 inh	UUG fidelity	NALP1 yeast inh	MC4R barr agon	HDAC3 inh	MC4R antagonist	canonical_smiles
13	97.7*	.	-16.5	2.1	0.0	-0.2	COc1cccc(/C=N/n2c(-c3cc(C)[nH]n3)n[nH]c2=S)c1O
14	51.9	.	10.6	-4.0	.	1.9	Cc1cc(-c2n[nH]c(=S)n2/N=C/c2c[nH]c3ccccc23)n[nH]1

# (continued)
nr | molecule | ALR H2O2 inh | UUG fidelity | NALP1 yeast inh | MC4R barr agon | HDAC3 inh | MC4R antagonist
17 | COc1cc(/C=N/n2c(-c3n[nH]c4c3CCC4)n[nH]c2=S)cc(OC)c1O | 95.2* | . | . | -3.5 | 17.6 | 3.6
18 | COCCNC(=O)C[C@@H]1CC[C@H]2[C@H](COc3ccc(NC(=O)COC)cc3C(=O)N2C)O1 | . | 6.5 | . | . | . | .
19 | Cc1cccc(C)c1-n1nnnc1SCSc1nnnn1-c1c(C)cccc1C | -5.6 | -3.9 | 20.9 | 8.7* | 1.0 | 1.3
20 | C/C=C/c1ccc2c(c1)O[C@H](CN(C)C(=O)c1ccc(F)cc1)[C@H](C)CN([C@H](C)CO)S2(=O)=O | . | 6.5 | . | . | . | .
21 | COCC(=O)N(C)C[C@@H]1Oc2cc(-c3ccc(C#N)cc3)ccc2S(=O)(=O)N([C@H](C)CO)C[C@@H]1C | . | 2.9 | . | . | . | .
22 | CO[C@H]1CN(C)C(=O)c2cc(NC(C)=O)ccc2OC[C@@H](C)N(Cc2cc(F)ccc2F)C[C@H]1C | . | -7.1 | . | . | . | .
23 | CC(=O)Nc1c(O)nc(SCC(=O)N2CCCCC2)[nH]c1=O | . | -17.6 | . | 1.1 | -1.5 | 14.0
24 | O=C(CSc1nc(O)c(Cc2ccccc2F)c(=O)[nH]1)N1CCCCCC1 | 23.2 | -5.0 | -0.3 | -0.7 | 4.5 | 6.3
25 | CC(C)CCc1c(O)nc(SCC(=O)N2CCCCCC2)[nH]c1=O | 87.5* | -3.8 | 16.8 | 0.8 | 3.6 | 9.2
26 | CCCc1c(O)nc(SCC(=O)N2CCCCC2)[nH]c1=O | 88.1* | -5.0 | 3.7 | -1.2 | -5.6 | 3.1
27 | CN1C(=O)C(N=Nc2ccccc2C(=O)O)N(C)C1=S (stereo not given) | 98.0* | . | 3.0 | -3.0 | 13.1 | -1.2
28 | CC1=NN(C(N)=S)C(=O)C1N=Nc1ccccc1C(=O)O (stereo not given) | -0.5 | -30.6 | 4.8 | -1.4 | 13.2 | 15.2
29 | COCC(C)OC(=O)/C(C#N)=C\c1coc2ccc(C)cc2c1=O (stereo not given) | 96.3* | . | 2.1 | -1.2 | 9.2 | 7.4
30 | C[C@H](CO)N1C[C@H](C)[C@H](CN(C)C(=O)Nc2ccc3c(c2)OCO3)Oc2ccc(NC(=O)Nc3cccc4ccccc34)cc2CC1=O | . | -5.6 | . | . | . | .
31 | CCn1c(CC(=O)Nc2ccc(Cl)cc2)nnc1SCC(=O)N1CCOCC1 | . | -10.7 | 15.6 | -1.7 | -4.7 | -1.4
